Here are results for four substances from US20160326241A1.

Test [1] concerns the target human IL-17A/A homodimer (human) (UniProt Q16552). Kind of test: cell-based or functional assay.
The target of test [2] is IL-17A/F heterodimer (human) (UniProt Q96PD4). Briefly: SPR (Biacore), antibody captured by anti-human IgG, antigen in solution. (Surface plasmon resonance follows binding to a sensor surface in real time, without labels.)
For test [3], the target named is human IL-17A/A homodimer (human) (UniProt Q16552). Briefly: SPR (Biacore), antibody captured by anti-human IgG, antigen in solution; apparent KD.

In test [1], “2 + 2 IL-17#136 scFab TNFa mab (#13) (bispecific antibody)” registered an IC50 IL-8 [nM], RA-FLS, IL-17 treatment (10 ng/ml) of 0.41 nM; an IC50 [M], MMP-3 production in chondrocytes, IL-17 treatment of 3.59e-08 M; an IC50 [nM], IL-8 production in A375 cells, IL-17 stimulation of 0.709 nM. In addition, the Kd in test [2] stood at 0.24 nM.

“2 + 2 IL-17#134 crossed TNFa mab (#16) (bispecific antibody)” returned a Kd in test [2] of 1.11 nM.

Substance “1 + 1 IL-17#134 crossed TNFa (#22) (bispecific antibody)” showed a Kd in test [2] of 0.5 nM.

Regarding “2 + 2 IL-17#136 scFab TNFa mab (#13) (bispecific antibody; other documents disagree on this pair)”, the Kd in test [3] was determined as 0.04 nM.
